Values of other authors in patent US20250160636A1, “Mitigating Ocular Toxicity” (GlaxoSmithKline Intellectual Property Development Limited, priority 2022, published 2025).

Conditions: full list, wrapped over lines: blepharitis, conjunctivitis, keratitis/ulcerative keratitis with decreased visual acuity, and cheilitis

Substance: Cetuximab
- Label mentions existence of (ocular toxicity issues): Label mentions existence of blepharitis, conjunctivitis, keratitis/ulcerative
